# Measurements from EP4831160A1, “TRISUBSTITUTED QUINAZOLINE DERIVATIVE, ACID ADDITION SALT THEREOF, AND PHARMACEUTICAL COMPOSITION AND USE THEREOF” (dated 2026).
# Amino acid sequences for entries named in this document (tags omitted). Chains listed by the source or under a name are the forms on record and can include a tag or linker. Residues count along the entry.
# UniProt P00533, with tags, fused parts or gaps INS770NPG limits assumed: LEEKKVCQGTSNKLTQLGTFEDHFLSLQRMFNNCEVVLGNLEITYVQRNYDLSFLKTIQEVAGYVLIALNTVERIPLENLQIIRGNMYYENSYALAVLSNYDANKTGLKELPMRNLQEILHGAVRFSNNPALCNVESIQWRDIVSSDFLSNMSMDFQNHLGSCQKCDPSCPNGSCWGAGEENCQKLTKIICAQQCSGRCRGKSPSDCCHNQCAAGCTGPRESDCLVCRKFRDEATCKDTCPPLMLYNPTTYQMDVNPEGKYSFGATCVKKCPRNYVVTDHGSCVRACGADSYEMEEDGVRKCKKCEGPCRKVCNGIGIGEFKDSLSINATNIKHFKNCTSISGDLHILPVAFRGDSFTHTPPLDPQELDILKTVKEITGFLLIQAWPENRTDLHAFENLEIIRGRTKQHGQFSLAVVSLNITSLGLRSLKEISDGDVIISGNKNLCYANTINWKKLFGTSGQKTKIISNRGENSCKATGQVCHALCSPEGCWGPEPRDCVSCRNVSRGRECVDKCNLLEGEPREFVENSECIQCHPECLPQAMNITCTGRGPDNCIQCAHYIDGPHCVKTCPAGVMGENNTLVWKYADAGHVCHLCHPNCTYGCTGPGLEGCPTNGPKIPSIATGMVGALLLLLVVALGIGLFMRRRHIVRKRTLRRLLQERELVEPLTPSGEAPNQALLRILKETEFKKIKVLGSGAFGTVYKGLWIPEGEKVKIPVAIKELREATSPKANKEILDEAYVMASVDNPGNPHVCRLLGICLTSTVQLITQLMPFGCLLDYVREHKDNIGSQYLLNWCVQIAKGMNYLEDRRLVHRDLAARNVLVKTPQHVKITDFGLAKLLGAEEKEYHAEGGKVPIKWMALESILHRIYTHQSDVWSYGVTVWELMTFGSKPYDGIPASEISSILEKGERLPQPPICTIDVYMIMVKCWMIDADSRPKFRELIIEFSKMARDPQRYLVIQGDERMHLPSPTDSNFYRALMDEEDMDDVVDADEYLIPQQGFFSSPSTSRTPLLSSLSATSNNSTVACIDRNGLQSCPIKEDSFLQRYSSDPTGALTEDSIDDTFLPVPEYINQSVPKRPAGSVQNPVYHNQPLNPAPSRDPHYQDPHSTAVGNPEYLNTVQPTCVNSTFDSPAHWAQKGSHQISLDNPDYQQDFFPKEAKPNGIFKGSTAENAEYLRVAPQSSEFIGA
# UniProt P00533, 25-1210 T790M limits assumed: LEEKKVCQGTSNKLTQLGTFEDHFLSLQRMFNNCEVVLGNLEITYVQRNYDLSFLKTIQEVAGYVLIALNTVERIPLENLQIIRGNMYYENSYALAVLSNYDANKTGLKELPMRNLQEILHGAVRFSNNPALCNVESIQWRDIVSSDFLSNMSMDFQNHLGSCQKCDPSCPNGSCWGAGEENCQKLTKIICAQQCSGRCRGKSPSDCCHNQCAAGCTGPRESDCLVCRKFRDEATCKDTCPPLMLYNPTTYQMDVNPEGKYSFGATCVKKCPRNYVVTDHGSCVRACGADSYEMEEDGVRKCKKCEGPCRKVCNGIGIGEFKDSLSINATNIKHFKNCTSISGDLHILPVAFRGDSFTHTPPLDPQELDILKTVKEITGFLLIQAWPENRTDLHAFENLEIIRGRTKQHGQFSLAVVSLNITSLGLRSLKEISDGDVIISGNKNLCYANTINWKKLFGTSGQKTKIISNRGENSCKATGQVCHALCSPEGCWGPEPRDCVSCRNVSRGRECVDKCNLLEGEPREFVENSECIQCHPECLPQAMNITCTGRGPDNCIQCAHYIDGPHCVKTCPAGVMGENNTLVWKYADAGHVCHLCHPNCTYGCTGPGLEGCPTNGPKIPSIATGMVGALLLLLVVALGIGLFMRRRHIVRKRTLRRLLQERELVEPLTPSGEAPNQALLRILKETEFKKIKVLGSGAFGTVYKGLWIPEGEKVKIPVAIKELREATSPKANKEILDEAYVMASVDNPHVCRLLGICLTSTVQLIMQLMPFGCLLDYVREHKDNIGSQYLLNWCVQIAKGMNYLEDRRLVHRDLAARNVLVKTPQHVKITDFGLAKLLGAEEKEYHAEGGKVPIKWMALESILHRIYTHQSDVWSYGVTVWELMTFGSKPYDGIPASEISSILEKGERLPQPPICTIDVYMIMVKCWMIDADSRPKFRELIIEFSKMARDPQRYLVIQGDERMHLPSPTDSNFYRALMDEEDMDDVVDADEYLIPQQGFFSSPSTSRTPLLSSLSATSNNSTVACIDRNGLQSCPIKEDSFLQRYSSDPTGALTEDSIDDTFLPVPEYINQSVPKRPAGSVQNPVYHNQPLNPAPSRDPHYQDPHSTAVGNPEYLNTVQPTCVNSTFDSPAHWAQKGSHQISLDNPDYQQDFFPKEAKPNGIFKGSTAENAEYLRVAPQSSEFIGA
# UniProt P04626, 23-1255 limits assumed: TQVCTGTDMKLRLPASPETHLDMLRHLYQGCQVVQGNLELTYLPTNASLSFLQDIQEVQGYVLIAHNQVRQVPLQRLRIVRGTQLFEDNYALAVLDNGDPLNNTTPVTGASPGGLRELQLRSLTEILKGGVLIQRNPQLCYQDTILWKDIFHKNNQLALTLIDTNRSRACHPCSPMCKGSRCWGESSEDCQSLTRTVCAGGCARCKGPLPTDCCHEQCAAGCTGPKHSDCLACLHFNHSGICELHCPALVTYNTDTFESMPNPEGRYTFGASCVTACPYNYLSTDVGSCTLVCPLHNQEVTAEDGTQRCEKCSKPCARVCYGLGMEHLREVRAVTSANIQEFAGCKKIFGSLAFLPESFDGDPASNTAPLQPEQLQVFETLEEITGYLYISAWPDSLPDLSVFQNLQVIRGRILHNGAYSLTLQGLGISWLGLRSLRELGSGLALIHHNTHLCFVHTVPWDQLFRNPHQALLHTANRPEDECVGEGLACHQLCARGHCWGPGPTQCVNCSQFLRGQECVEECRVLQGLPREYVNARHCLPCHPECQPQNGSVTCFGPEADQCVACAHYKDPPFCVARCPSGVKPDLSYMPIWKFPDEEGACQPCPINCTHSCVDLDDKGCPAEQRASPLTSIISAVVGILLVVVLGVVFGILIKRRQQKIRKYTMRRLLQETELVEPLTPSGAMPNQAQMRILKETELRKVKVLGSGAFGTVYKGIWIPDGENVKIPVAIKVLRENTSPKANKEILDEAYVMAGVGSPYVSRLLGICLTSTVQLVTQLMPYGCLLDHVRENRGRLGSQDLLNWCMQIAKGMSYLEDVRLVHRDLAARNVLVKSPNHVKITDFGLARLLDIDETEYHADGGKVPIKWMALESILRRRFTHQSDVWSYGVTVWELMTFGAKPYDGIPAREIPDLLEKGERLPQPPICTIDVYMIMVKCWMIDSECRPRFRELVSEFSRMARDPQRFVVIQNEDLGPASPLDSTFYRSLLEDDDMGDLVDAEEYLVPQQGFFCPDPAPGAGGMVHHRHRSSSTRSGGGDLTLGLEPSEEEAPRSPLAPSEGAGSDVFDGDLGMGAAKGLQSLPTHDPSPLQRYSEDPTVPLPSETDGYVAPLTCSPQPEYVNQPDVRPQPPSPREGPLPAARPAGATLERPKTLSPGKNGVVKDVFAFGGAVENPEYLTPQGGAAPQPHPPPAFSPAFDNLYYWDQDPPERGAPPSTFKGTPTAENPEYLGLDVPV
# UniProt P04626, with tags, fused parts or gaps INS777CG limits assumed: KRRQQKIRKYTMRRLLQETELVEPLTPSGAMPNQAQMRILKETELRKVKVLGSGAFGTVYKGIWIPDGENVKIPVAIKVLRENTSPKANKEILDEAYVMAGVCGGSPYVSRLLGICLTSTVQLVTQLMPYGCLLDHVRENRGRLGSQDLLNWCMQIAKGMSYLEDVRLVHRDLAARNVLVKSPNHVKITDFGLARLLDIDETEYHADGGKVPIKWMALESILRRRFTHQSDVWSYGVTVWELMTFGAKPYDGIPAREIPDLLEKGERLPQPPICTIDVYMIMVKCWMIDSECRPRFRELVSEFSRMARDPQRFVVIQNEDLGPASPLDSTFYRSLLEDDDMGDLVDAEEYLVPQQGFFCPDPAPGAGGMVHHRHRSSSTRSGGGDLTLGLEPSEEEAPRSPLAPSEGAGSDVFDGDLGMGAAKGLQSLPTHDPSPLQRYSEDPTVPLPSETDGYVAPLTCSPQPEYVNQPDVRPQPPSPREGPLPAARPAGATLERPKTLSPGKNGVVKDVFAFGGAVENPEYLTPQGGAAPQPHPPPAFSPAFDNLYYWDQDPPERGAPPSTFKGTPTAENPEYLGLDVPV
# UniProt P51451, whole entry: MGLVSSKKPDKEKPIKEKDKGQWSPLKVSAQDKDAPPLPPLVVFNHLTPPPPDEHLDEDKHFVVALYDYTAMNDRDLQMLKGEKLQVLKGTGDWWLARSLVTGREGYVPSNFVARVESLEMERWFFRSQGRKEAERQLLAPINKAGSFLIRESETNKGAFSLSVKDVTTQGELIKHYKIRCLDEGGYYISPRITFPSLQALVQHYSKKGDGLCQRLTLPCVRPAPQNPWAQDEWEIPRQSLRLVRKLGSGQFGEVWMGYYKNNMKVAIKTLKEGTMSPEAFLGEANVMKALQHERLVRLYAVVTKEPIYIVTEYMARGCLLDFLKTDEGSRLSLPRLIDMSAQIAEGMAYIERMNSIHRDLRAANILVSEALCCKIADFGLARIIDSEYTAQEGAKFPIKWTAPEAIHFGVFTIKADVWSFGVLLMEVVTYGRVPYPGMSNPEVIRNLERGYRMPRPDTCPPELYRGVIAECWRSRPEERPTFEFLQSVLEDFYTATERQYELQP
# Key:
# [1] = test system: cells (e.g. SW620 cells); assay: Cell biology experiment: CellTiter-Glo luminescence, 3 days incubation, cell line panel of the results table
# [2] = target: EGFR (D770_N771insNPG) (Homo sapiens, UniProt P00533, INS770NPG); assay: Homogeneous time-resolved fluorescence (HTRF) kinase assay
# [3] = target: HER2 (Homo sapiens, UniProt P04626); assay: as above
# [4] = target: B-cell lymphocyte kinase (BLK) (Homo sapiens, UniProt P51451); assay: as above; details: read-out: enzymatic activity (IC90)
# [5] = target: HER2 (V777-G778insCG) (Homo sapiens, UniProt P04626, INS777CG); assay: as above; details: read-out: enzymatic activity (IC90)
# [6] = target: EGFR (T790M) (Homo sapiens, UniProt P00533, T790M); assay: as above; details: read-out: enzymatic activity (IC90)
# [7] = Blood-brain barrier assay / tissue distribution after oral administration, LC-MS/MS; details: 3 mg/kg oral (dosed as maleate hydrate crystal form A)
# [8] = Pharmacokinetics in rats, intravenous and oral administration
# [9] = test system: HCC1419 cell; assay: Cell proliferation inhibition experiment (similar cell experimental conditions, CellTiter-Glo)
# [10] = test system: HER2-positive other tumor types; assay: Human clinical trial, efficacy in subjects with HER2-positive other tumor types; details: for BOR: Best Overall Response
# [11] = test system: HER2-positive colorectal cancer; assay: Human clinical trial, efficacy in subjects with HER2-positive colorectal cancer; details: for BOR: Best Overall Response
# [12] = test system: BT-474 human breast cancer cell line; assay: In vivo efficacy study, subcutaneous BT-474 xenograft, p.o. QD×21; details: for mice that achieved complete tumor regression: at the end of treatment; for tumor growth inhibition (TGI): oral, once daily for 21 consecutive days, BT-474 xenograft
# [13] = test system: HER2-positive breast cancer; assay: Human clinical trial, efficacy in subjects with HER2-positive breast cancer; details: for BOR: Best Overall Response
# [14] = test system: brain metastases; assay: Clinical: intracranial lesions of patients with brain metastases after treatment
# [15] = Systematic characterization of different salt crystal forms (comparison of properties); details: sealed centrifuge tube, kept at RT
# [16] = Solid stability study by HPLC (purity by area normalization); details: after 21 days at room temperature
# [17] = test system: SK-BR-3 cell; assay: Cell proliferation inhibition experiment; details: SK-BR-3 cell proliferation inhibition
# [18] = read-out: enzymatic activity (IC90)
# [19] = Subject No. 01003, submandibular cancer, 150 mg QD
# [20] = Subject No. 01021, salivary gland cancer, 200 mg QD
smiles,measurement,setting,value
CCOc1cc2ncnc(Nc3ccc(Oc4ccc(F)cc4)cc3)c2cc1NC(=O)/C=C/CN(C)C,IC50,[1]; BT-474 (HER2+) cell line,148 nM
same,IC50,[1]; HCC1954 (HER2+) cell line,132 nM
same,IC50,[1]; SK-BR-3 (HER2+) cell line,11.1 nM
same,IC50,[2]; enzymatic activity,5.99 nM
same,IC90,[2]; [18],172 nM
same,IC50,[3]; enzymatic activity,1.3 nM
same,IC90,[3]; [18],8.03 nM
same,IC90,[4],145 nM
same,IC90,[5],152 nM
same,IC90,[6],45.4 nM
same,exposure ratio in the brain and plasma,[7]; female rats,79.7%
same,exposure ratio in the brain and plasma,[7]; male rats,43.6%
same,Rat IV 1 mpk AUC0-t,"[8]; rat, IV, 1 mpk",561 (h*ng/mL)
same,F%,"[8]; rat, bioavailability, oral 10 mpk vs IV 1 mpk",79.50%
same,Rat Oral 10 mpk AUC0-t,"[8]; rat, oral, 10 mpk",4460 (h*ng/mL)
same,Cmax,"[8]; rat, route not printed in the row, stands below the Rat Oral 10 mpk row",304 ng/mL
same,bioavailability,"[8]; rats, oral vs intravenous",79.5%
same,EC50,[9],0.016 µg/mL
CCOc1cc2ncnc(Nc3ccc(Oc4ccc(F)cc4)cc3)c2cc1NC(=O)/C=C/CN(C)C.O.O=C(O)/C=C\C(=O)O,Percentage Reduction in target Lesions,[10]; [19],-59.3%
same,BOR,[10]; [19],PR
same,Percentage Reduction in target Lesions,[10]; [20],-34.5%
same,BOR,[10]; [20],PR
same,Percentage Reduction in target Lesions,"[11]; Subject No. 01007, 250 mg QD",-26.3%
same,BOR,"[11]; Subject No. 01007, 250 mg QD",SD
same,Percentage Reduction in target Lesions,"[11]; Subject No. 01018, 150 mg QD",-34.1%
same,BOR,"[11]; Subject No. 01018, 150 mg QD",PR
same,Percentage Reduction in target Lesions,"[11]; Subject No. 03012, 200 mg QD",-21.8%
same,BOR,"[11]; Subject No. 03012, 200 mg QD",SD
same,mice that achieved complete tumor regression,[12]; 10 mg/kg,all
same,tumor growth inhibition (TGI),[12]; 10 mg/kg,100%
same,mice that achieved complete tumor regression,[12]; 20 mg/kg,all
same,tumor growth inhibition (TGI),[12]; 20 mg/kg,100%
same,mice that achieved complete tumor regression,[12]; 40 mg/kg,all
same,tumor growth inhibition (TGI),[12]; 40 mg/kg,100%
same,Percentage Reduction in target Lesions,"[13]; Subject No. 01013, 200 mg QD",-46.5%
same,BOR,"[13]; Subject No. 01013, 200 mg QD",PR
same,Percentage Reduction in target Lesions,"[13]; Subject No. 01014, 200 mg QD",-47.6%
same,BOR,"[13]; Subject No. 01014, 200 mg QD",PR
same,Percentage Reduction in target Lesions,"[13]; Subject No. 01023, 200 mg QD",-53.3%
same,BOR,"[13]; Subject No. 01023, 200 mg QD",PR
same,Percentage Reduction in target Lesions,"[13]; Subject No. 02004, 200 mg QD",-32.7%
same,BOR,"[13]; Subject No. 02004, 200 mg QD",PR
same,Percentage Reduction in target Lesions,"[13]; Subject No. 02008, 200 mg QD",-69.8%
same,BOR,"[13]; Subject No. 02008, 200 mg QD",PR
same,Percentage Reduction in target Lesions,"[13]; Subject No. 02010, 200 mg QD",-100%
same,BOR,"[13]; Subject No. 02010, 200 mg QD",CR
same,Percentage Reduction in target Lesions,"[13]; Subject No. 02013, 200 mg QD",-44.2%
same,BOR,"[13]; Subject No. 02013, 200 mg QD",PR
same,Percentage Reduction in target Lesions,"[13]; Subject No. 02014, 150 mg QD",-65.2%
same,BOR,"[13]; Subject No. 02014, 150 mg QD",PR
same,Percentage Reduction in target Lesions,"[13]; Subject No. 03014, 150 mg QD",-45.8%
same,BOR,"[13]; Subject No. 03014, 150 mg QD",PR
same,Intracranial Lesion Reduction%,"[14]; Test Subject No. 01021, salivary gland cancer, 200 mg QD",-60%
same,Intracranial Lesion Reduction%,"[14]; Test Subject No. 03005, breast cancer, 150 mg QD",-41.2%
same,solid stability: impurity RRT= 0.29,[15]; at day 0,0.07%
same,solid stability: impurity RRT= 0.78,[15]; at day 0,0.02%
same,solid stability: impurity RRT= 0.89,[15]; at day 0,0.06%
same,solid stability: purity,[15]; at day 0,99.61%
same,solid stability: impurity RRT= 0.29,[15]; at day 24,0.08%
same,solid stability: impurity RRT= 0.78,[15]; at day 24,0.02%
same,solid stability: impurity RRT= 0.89,[15]; at day 24,0.07%
same,solid stability: purity,[15]; at day 24,99.59%
same,solid stability,[16],better stability
COc1cc2ncnc(Nc3ccc(Oc4ccc(Cl)cc4)cc3)c2cc1NC(=O)/C=C/CN(C)C,IC50,[17],221 nM
